Protein sequences, listed by entry. Tags and fused reporters are not part of them. Lines headed by an entry give the natural chain unless they say otherwise; changes in a name come on top.
UniProt O96935: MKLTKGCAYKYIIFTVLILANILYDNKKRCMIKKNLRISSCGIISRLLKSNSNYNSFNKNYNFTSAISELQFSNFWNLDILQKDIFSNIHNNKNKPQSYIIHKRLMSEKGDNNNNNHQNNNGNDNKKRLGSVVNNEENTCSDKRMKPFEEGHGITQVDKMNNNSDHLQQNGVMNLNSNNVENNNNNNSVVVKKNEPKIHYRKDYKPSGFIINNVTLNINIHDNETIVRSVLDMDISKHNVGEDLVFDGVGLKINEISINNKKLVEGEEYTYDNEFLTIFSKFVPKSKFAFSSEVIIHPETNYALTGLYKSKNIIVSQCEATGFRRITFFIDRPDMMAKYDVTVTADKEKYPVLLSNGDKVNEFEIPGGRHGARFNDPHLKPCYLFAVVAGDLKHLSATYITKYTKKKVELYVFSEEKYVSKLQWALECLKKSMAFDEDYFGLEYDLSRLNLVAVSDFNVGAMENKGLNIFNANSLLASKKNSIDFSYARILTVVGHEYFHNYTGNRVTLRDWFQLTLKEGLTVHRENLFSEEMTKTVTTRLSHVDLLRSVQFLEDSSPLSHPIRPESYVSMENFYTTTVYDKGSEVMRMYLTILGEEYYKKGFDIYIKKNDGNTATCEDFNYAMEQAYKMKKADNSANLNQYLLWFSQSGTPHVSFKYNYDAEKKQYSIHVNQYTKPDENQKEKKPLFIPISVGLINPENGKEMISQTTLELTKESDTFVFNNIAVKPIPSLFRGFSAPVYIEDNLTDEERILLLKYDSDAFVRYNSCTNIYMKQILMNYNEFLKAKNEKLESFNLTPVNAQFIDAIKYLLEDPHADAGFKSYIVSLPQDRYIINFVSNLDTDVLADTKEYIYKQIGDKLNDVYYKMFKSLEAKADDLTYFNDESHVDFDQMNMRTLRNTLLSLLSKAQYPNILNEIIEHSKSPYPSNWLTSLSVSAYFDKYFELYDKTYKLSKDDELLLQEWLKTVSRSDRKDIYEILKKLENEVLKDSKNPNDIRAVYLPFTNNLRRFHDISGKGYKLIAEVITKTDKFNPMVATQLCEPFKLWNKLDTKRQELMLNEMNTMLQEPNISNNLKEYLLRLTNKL
UniProt Q8IL11: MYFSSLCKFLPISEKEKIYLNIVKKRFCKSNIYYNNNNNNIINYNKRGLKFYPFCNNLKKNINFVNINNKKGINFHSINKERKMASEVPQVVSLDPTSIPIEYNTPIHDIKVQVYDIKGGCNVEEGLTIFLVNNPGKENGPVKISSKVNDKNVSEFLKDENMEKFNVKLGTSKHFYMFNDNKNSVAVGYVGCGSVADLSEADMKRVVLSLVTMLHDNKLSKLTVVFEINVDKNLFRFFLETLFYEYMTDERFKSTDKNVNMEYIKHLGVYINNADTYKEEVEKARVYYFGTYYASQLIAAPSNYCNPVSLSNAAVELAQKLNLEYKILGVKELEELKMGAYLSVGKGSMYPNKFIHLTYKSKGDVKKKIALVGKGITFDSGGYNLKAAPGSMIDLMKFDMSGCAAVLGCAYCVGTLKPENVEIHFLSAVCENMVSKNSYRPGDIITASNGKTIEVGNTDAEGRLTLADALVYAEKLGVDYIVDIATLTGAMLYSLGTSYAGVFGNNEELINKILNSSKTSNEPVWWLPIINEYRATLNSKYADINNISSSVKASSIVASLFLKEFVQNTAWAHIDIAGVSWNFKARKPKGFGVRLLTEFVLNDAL

In paper PMC11237774, “On-target, dual aminopeptidase inhibition provides cross-species antimalarial activity” (mBio, 2024):

Tests used:
PfA-M1 (PF3D7_1311800) = target: T1, PfA-M1 (PF3D7_1311800) (Plasmodium falciparum, UniProt O96935); experiment: Thermal proteomics profiling; assay type: binding, P. falciparum; conditions: 60°C thermal challenge
T1 construct: parasite lysate was separated into technical replicates; endogenous in cells; host or cells: P. falciparum parasite lysate

[1] = system: human M1 homologs vs Plasmodium M1; conditions: human homologs LTA4H, ERAP1/2 vs Plasmodium
Description: Inhibition of aminopeptidase activity assays were performed against nine aminopeptidases: the M1 alanyl and M17 leucyl aminopeptidases from P. falciparum (PfA-M1; PfA-M17), P. vivax (Pv-M1; Pv-M17), and P. berghei (Pb-M1; Pb-M17), and three human M1 homologs: LTA4H (OriGene TP307617), ERAP1 (OriGene TP314469), and ERAP2 (Creative BioMart ERAP2-304H). The Plasmodium enzymes were produced recombinantly as described previously ([16], [17]), and the human recombinant enzymes were purchased from commercial suppliers as indicated.
Reactions were measured at 37°C in white 384-well plates in a total volume of 25 or 50 µL using a spectrofluorimeter (BMG FLUOstar) with excitation at 355 nm and emission at 460 nm. The fluorescence signal was continuously monitored until a final steady-state velocity, v, was obtained. Inhibition constants were calculated from biological triplicates made from three different protein preparations.
Substrate concentrations were selected to allow sensitive detection of enzyme activity while not exceeding the Km for each enzyme. […] Where possible, the Ki values were calculated by plotting the initial rates versus inhibitor concentration and fitting to the Morrison equation for tight-binding inhibitors in GraphPad Prism (V.8.4.1; non-linear regression method).

PfA-M17 (Pf3D7_1446200) = target: T2, PfA-M17 (Pf3D7_1446200) (Plasmodium falciparum, UniProt Q8IL11); experiment: Thermal proteomics profiling; assay type: binding, P. falciparum; conditions: 60°C thermal challenge
T2 construct: parasite lysate was separated into technical replicates; endogenous in cells; host or cells: P. falciparum parasite lysate

TM90C2B = assay type: cell-based, P. falciparum
Description: (§1) In vitro testing was performed using the modified [^3H]hypoxanthine incorporation assay, as previously reported ([34]). The specific mutations in the field isolates (see Table 1, top six strains) have been previously described ([35], [36]), as have the specific mutations in the laboratory-selected Dd2 parasites (see Table 1, remaining five strains) ([36]).

Dd2 ELQ300 = assay type: cell-based, P. falciparum
Description: as §1

K1 = assay type: cell-based, P. falciparum
Description: as §1

Dd2 = assay type: cell-based, P. falciparum
Description: as §1

Dd2 GNF156 = assay type: cell-based, P. falciparum
Description: as §1

NF54 = assay type: cell-based, P. falciparum
Description: as §1

Dd2 MMV390048 = assay type: cell-based, P. falciparum
Description: as §1

7G8 = assay type: cell-based, P. falciparum
Description: as §1

Dd2 DDD107498 = assay type: cell-based, P. falciparum
Description: as §1

Cam3.1 (MRA1240) = assay type: cell-based, P. falciparum
Description: as §1

Dd2 DSM265 = assay type: cell-based, P. falciparum
Description: as §1

HEK293 cells = system: HEK293 cells; design: method as in PMID 30537832; conditions: at 10 µM; cited from earlier work

In the case of `CC(C)(C)CC(=O)NC(C(=O)NO)c1ccc(-c2cc(F)c(F)c(F)c2)cc1` (stereo not drawn) [MMV1557817, N-(2-(hydroxyamino)−2-oxo-1-(3′,4′,5′-trifluoro-[1,1′-biphenyl]-4-yl)ethyl)-3,3-dimethylbutanamide], the “fold stabilization compared with 0 nM” value (PfA-M1 (PF3D7_1311800); 300 nM) is reported as 1.36 fold, the “fold stabilization compared with 0 nM” value (PfA-M1 (PF3D7_1311800); 1,200 nM) is reported as 4.33 fold and the “selectivity index between human and Plasmodium target” value [1] is reported as 50–100. The “fold stabilization compared with 0 nM” value (PfA-M17 (Pf3D7_1446200); 300 nM) was 1.28 fold, the “fold stabilization compared with 0 nM” value (PfA-M17 (Pf3D7_1446200); 1,200 nM) was 1.26 fold and the “Fold shift EC50 relative to NF54” value (TM90C2B) was 1.0. The “Fold shift EC50 relative to Dd2” value (Dd2 ELQ300) was 1.0, the “Fold shift EC50 relative to NF54” value (K1) was 1.2 and the “Fold shift EC50 relative to Dd2” value (Dd2) was 1.0. For the same compound, the “Fold shift EC50 relative to NF54” value (Dd2) was 1.1, the “Fold shift EC50 relative to Dd2” value (Dd2 GNF156) was 1.0 and the “Fold shift EC50 relative to NF54” value (NF54) was 1.0. The “Fold shift EC50 relative to Dd2” value (Dd2 MMV390048) was 0.8, the “Fold shift EC50 relative to NF54” value (7G8) was 1.3 and the “Fold shift EC50 relative to Dd2” value (Dd2 DDD107498) was 1.0. For the same compound, the “Fold shift EC50 relative to NF54” value (Cam3.1 (MRA1240)) was 1.1, the “Fold shift EC50 relative to Dd2” value (Dd2 DSM265) was 0.9 and the selectivity index (HEK293 cells) was ≥ 1,370.
